Laboratory results taken from US20050136444A1 (priority 2003, published 2005).
Counter-ions that a name gives are not always drawn.

Amino acid sequences for entries named in this document (tags omitted). Residues count along the entry.
UniProt Q9Y5X5, 103-522: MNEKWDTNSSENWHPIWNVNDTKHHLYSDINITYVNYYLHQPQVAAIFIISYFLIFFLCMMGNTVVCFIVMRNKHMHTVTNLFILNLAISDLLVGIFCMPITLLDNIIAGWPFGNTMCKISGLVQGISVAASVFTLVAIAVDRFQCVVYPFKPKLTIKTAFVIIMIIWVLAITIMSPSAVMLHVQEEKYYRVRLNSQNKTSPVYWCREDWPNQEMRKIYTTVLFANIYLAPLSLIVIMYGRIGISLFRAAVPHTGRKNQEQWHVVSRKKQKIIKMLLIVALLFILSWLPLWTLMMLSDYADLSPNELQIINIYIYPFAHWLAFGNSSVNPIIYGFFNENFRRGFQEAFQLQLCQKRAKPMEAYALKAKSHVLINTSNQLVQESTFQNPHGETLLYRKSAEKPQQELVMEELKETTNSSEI

Legend:
NPFF2 = biological target: T1, NPFF2 (Homo sapiens, UniProt Q9Y5X5); test: Receptor Selection and Amplification Technology (R-SAT) functional assay, NPFF2; format: cell-based; settings: Table 1, NA = No activity detectable at the highest dose tested (20 μM), read-out: NPFF2 pEC50 (converted)
T1 construct: expressed in transfected cells; host or cells: NIH3T3

NPFF2b = biological target: T2, NPFF2b (Homo sapiens, UniProt Q9Y5X5); test: cAMP assay in transiently transfected HEK-T cells, NPFF2; format: cell-based; settings: HEK-T cell, cAMP data, Table 2, read-out: NPFF2b % Efficacy Mean
T2 construct: expressed in transfected cells; host or cells: HEK-T
Method: An assay was established for measuring cAMP in transiently transfected cells that takes advantage of the fact that most cells that are transfected with one gene, can be simultaneously transfected with other genes. Thus, the NPFF1 and NPFF2 receptors were transfected along with a Gs-coupled receptor (EP2) at a ratio of 5:1. In un-transfected HEK-T cells there is no response to PGE2 (agonist for EP2) at doses as high 10 μM. […] Improvement was also detected in the sensitivity of the assay in some cases when cells are co-transfected with AC5 at ½-⅕ of the amount of DNA of the Gi-coupled receptor studied.
This set up was routinely used for the transfection of HEK-T cells with NPFF1 and NPFF2 receptors. After 48 hours the cAMP assay was set up using DiscoveRx assay protocol with transfected cells in suspension in the presence of varying concentrations of the NPFF ligands and 300 nM of […] in white bottom plates. Cells were incubated for 15 minutes at 37° C. At the end of incubation, cells were lysed and the remainder of the assay performed as per DiscoveRx protocol.
For antagonist assays, the cells were pre-incubated with antagonists for 15 minutes at 37° C. prior to the addition of agonist and then PGE2 in order. Cells were incubated for another 15 minutes at 37° C. following which the cells were lysed and processed as per kit protocol.

| Structure (SMILES) | EC50 (NPFF2) | Emax (NPFF2b) |
| --- | --- | --- |
| NC(N)=NN=Cc1ccc(Cl)c(C(F)(F)F)c1 [Compound 2035, 1-[4-Chloro-3-(trifluoromethyl)benzylideneamino]guanidine Hydrochloride] | 0.631 µM | – |
| Cl.N=C(N)N/N=C/c1ccc(Br)c(Br)c1 [Compound 3093, 1-(3,4-Dibromobenzylideneamino)guanidine Hydrochloride] | – | 78% |
